This passage reports IC50 results from US9340530B2, “Preparation and use of bicyclic himbacine derivatives as PAR-1 receptor antagonists” (Merck, Sharp & Dohme Corp., priority 2012, dated 2016).

By UniProt entry, the sequences of proteins in these tests, tags left out. Residues count along the entry.
UniProt P25116, 22-425: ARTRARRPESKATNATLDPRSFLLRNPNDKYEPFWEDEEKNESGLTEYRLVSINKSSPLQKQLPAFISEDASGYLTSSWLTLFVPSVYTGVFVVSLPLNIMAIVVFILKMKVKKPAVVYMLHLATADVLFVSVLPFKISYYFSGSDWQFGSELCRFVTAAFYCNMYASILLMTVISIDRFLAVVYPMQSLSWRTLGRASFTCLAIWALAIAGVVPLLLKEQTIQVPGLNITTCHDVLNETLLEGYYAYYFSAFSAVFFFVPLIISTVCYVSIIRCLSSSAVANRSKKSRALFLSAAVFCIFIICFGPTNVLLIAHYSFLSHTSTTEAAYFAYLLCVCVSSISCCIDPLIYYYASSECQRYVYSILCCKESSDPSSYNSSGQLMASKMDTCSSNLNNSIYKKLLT

Each structure is given as a SMILES string. pIC50: −log10 of the molar value.

The assay concerns the target PAR1 (Homo sapiens (Human), UniProt P25116). As to the kind of experiment: Par-1 FLIPR assay (calcium, HEK 293 cells, PAR1 activating peptide). As to conditions: PAR1 selective receptor-activating peptide at 80% activation. Type of assay: cell-based. Here is the method:
HEK 293 Cells were grown in media containing DMEM, 10% FBS pen/strep/L-Glutamine and non-essential amino acids. The cells were plated in 384-well PDL coated plates at 12000 cells/well and incubated overnight at 37° C./5% CO2. Media was then removed from the cells, which were then incubated with buffer (Hank's containing HEPES and Chaps) containing FLIPR calcium-5 dye, made with buffer containing probenecid, for 60 minutes at 37° C. Varying concentrations of compound in a final concentration of 5% DMSO were then added to the cells and incubated at 25° C. for 30 minutes. The plates were then added to the FLIPR Tetra and the device added a concentration of a PAR1 selective receptor-activating peptide with the sequence Ala-parafluoroPhe-Arg-Cha-Cit-Try-Nh2 (prepared in water) at a concentration equal to the effective concentration that achieves 80% activation of signaling on the day of the experiment. The range was from 1.4-2.0 μM peptide. The FLIPR reads at an excitation wavelength of 480 nm and an emission wavelength of 535 nm, and performs 60 scans over a 1-2 min reading time. The data were analyzed by taking the peak signal over a portion of the range of the 60 scans and dividing this signal by the minimum signal for that same range.
What is called pIC50 is the negative decadic logarithm of the IC50, by convention in mol/L. For `C[C@H]1NC(=O)[C@@H]2CC(F)(F)[C@@H](C)[C@H](/C=C/c3ccc(-c4ccccc4C#N)cn3)[C@H]12` [Example 78], the pIC50 is 8.82. With `C[C@H]1OC(=O)[C@]2(CC#N)CC(F)(F)[C@@H](C)[C@H](/C=C/c3ccc(-c4ccccc4C#N)cn3)[C@H]12` [Example 14] the figure was 8.29.

On to `C[C@H]1OC(=O)[C@]2(NS(C)(=O)=O)CC(F)(F)[C@@H](C)[C@H](/C=C/c3ccc(-c4ccccc4C#N)cn3)[C@H]12` [Example 68], for which the pIC50 was 8.15. With `C[C@H]1OC(=O)[C@@H]2CC(F)(F)[C@@H](C)[C@H](/C=C/c3ccc(-c4ccccc4-c4nnn[nH]4)cn3)[C@H]12` [Example 75] the figure was 6.46; with `C[C@H]1OC(=O)[C@]2(Cc3nn[nH]n3)CC(F)(F)[C@@H](C)[C@H](/C=C/c3ccc(-c4ccccc4Cl)cn3)[C@H]12` [Example 27], 8.12. With `Cc1cccc(-c2ccc(/C=C/[C@@H]3[C@@H]4[C@@H](C)OC(=O)[C@]4(CN)CC(F)(F)[C@H]3C)nc2)c1C#N` [Example 77] the figure was 8.92; with `C[C@H]1OC(=O)[C@]2(C3(O)COC3)CC(F)(F)[C@@H](C)[C@H](/C=C/c3ccc(-c4ccccc4C#N)cn3)[C@H]12` [Example 16], 8.10; with `C[C@H]1NC(=O)[C@]2(O)CC(F)(F)[C@@H](C)[C@H](/C=C/c3ccc(-c4ccccc4C#N)cn3)[C@H]12` [Example 79], 8.24.
